Earlier results on one substance are cited in patent US20170029494A1, “Antigen Binding Constructs” (Glaxo Group Limited, priority 2011, published 2017).

Protein sequences, listed by entry. Tags and fused reporters are not part of them. Residues count along the entry.
UniProt P35968, 20-1356, species assumed: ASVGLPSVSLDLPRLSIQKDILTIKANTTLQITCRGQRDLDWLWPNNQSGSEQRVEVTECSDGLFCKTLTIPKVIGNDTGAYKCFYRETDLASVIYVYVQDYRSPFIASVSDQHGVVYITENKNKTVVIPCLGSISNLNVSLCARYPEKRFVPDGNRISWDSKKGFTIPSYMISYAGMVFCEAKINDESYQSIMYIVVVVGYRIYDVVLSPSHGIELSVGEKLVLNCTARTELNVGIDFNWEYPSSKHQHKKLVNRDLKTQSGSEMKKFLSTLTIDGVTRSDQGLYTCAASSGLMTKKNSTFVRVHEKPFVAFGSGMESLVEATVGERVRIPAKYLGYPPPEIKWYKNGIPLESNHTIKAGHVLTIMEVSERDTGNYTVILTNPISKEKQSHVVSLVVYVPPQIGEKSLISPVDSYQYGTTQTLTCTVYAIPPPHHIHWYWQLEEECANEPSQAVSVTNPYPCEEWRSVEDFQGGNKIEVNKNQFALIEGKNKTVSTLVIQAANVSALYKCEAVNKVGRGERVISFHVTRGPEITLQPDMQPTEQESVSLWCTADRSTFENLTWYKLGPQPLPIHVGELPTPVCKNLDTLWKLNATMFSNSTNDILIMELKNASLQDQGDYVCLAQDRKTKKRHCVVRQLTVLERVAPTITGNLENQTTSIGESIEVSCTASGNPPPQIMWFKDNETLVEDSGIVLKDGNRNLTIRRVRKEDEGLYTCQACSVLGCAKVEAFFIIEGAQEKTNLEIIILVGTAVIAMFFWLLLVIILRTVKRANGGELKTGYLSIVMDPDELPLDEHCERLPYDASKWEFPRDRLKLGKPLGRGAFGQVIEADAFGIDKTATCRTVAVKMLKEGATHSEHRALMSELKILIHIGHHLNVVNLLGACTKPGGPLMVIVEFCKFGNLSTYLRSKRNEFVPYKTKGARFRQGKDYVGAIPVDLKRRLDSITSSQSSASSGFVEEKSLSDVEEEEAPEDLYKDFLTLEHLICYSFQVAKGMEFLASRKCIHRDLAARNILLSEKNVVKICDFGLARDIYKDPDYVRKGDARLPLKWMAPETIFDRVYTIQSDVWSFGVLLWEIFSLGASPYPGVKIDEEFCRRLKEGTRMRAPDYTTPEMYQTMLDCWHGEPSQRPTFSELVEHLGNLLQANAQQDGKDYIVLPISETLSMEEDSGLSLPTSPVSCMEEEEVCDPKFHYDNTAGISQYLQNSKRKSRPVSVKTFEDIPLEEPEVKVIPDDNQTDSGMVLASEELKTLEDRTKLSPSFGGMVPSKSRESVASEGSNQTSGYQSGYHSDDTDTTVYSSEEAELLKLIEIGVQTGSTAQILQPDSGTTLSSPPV

The series deals with VEGFR2 (Flk-2; KDR) (Homo sapiens, UniProt P35968). The conditions noted are these: cited from earlier work.

With VEGF, the Kd is 0.1 nM.

By Kd is commonly meant the concentration at which binding is half-saturated.
